Assay results as given in patent publication US6660768B2, “Parasiticidal compositions and methods of use” (Schering-Plough Animal Health Corporation, priority 2001, dated 2003).

Test: Example 3B: solubility of permethrin in PM (propylene glycol monomethyl ether), DM (diethylene glycol monomethyl ether) and PM or DPM (dipropylene glycol monomethyl ether)/d-limonene mixtures at low temperatures, seeded
Procedure: These solutions were poured into 100 mL tubes with screw top caps. These tubes were placed in the cold water bath and allowed to come to equilibrium at the temperature of the bath. […] The seeded preparations were then thoroughly shaken, replaced in the bath and allowed to remain in the bath for a 24 hour period. The preparations were then examined for crystallization, then again thoroughly agitated and replaced in the bath for an additional time period. Samples of the supernatant were removed after additional crystallization had occurred.
The solvent mixtures tested were: dipropylene glycol monomethyl ether/d-limonene and propylene glycol monomethyl ether/d-limonene.
These solvent mixtures were evaluated at ratios of 2:1, 1:1, 1:2, and then at 8:2 and 9:1 (the first number refers to one of the glycol ethers, the second number refers to d-limonene).

[1] = DM, 5° C., Original % permethrin 50
[2] = DM, 5° C., Original % permethrin 55
[3] = DM, 5° C., Original % permethrin 60
[4] = DM, 5° C., Original % permethrin 65
[5] = DM, 10° C., Original % permethrin 50
[6] = DM, 10° C., Original % permethrin 55
[7] = DM, 10° C., Original % permethrin 60
[8] = DM, 20° C., Original % permethrin 50
[9] = DM, 20° C., Original % permethrin 55
[10] = DM, 20° C., Original % permethrin 60
[11] = DM, 20° C., Original % permethrin 65
[12] = DM, 20° C., Original % permethrin 75
[13] = DM, 25° C., Original % permethrin 50
[14] = DM, 25° C., Original % permethrin 55
[15] = DM, 25° C., Original % permethrin 60
[16] = DM, 25° C., Original % permethrin 65
[17] = DM, 25° C., Original % permethrin 75
[18] = PM, 5° C., Original % permethrin 50
[19] = PM, 5° C., Original % permethrin 55
[20] = PM, 5° C., Original % permethrin 60
[21] = PM, 5° C., Original % permethrin 65
[22] = PM, 5° C., Original % permethrin 75
[23] = PM, 10° C., Original % permethrin 60
[24] = PM, 10° C., Original % permethrin 65
[25] = PM, 10° C., Original % permethrin 75
[26] = PM, 20° C., Original % permethrin 50
[27] = PM, 20° C., Original % permethrin 55
[28] = PM, 20° C., Original % permethrin 60
[29] = PM, 20° C., Original % permethrin 65
[30] = PM, 20° C., Original % permethrin 75
[31] = PM, 25° C., Original % permethrin 50
[32] = PM, 25° C., Original % permethrin 55
[33] = PM, 25° C., Original % permethrin 60
[34] = PM, 25° C., Original % permethrin 65
[35] = PM, 25° C., Original % permethrin 75

CC1(C)C(C=C(Cl)Cl)C1C(=O)OCc1cccc(Oc2ccccc2)c1 (centres unmarked) [permethrin]
Isomer Ratio Trans/Cis (65% permethrin in DPM/d-limonene, 0% d-limonene of solvent mixture, 0° C.): 2.90 | Isomer Ratio Trans/Cis (65% permethrin in DPM/d-limonene, 0% d-limonene of solvent mixture, 5° C.): 2.43 | Isomer Ratio Trans/Cis (65% permethrin in DPM/d-limonene, 0% d-limonene of solvent mixture, 10° C.): 1.91 | Isomer Ratio Trans/Cis (65% permethrin in DPM/d-limonene, 10% d-limonene of solvent mixture, 10° C.): 2.02 | Isomer Ratio Trans/Cis (65% permethrin in DPM/d-limonene, 20% d-limonene of solvent mixture, 10° C.): 1.75 | Isomer Ratio Trans/Cis (65% permethrin in DPM/d-limonene, 33% d-limonene of solvent mixture, 0° C.): 2.22 | Isomer Ratio Trans/Cis (65% permethrin in DPM/d-limonene, 33% d-limonene of solvent mixture, 5° C.): 1.61 | Isomer Ratio Trans/Cis (65% permethrin in DPM/d-limonene, 33% d-limonene of solvent mixture, 10° C.): 1.78 | Isomer Ratio Trans/Cis (65% permethrin in DPM/d-limonene, 50% d-limonene of solvent mixture, 0° C.): 2.26 | Isomer Ratio Trans/Cis (65% permethrin in DPM/d-limonene, 50% d-limonene of solvent mixture, 5° C.): 1.55 | Isomer Ratio Trans/Cis (65% permethrin in DPM/d-limonene, 50% d-limonene of solvent mixture, 10° C.): 1.60 | Isomer Ratio Trans/Cis (65% permethrin in DPM/d-limonene, 67% d-limonene of solvent mixture, 0° C.): 2.11 | Isomer Ratio Trans/Cis (65% permethrin in DPM/d-limonene, 67% d-limonene of solvent mixture, 5° C.): 1.42 | Isomer Ratio Trans/Cis (65% permethrin in DPM/d-limonene, 67% d-limonene of solvent mixture, 10° C.): 1.55 | Isomer Ratio Trans/Cis (65% permethrin in DPM/d-limonene, 100% d-limonene of solvent mixture, 0° C.): 2.46 | Isomer Ratio Trans/Cis (65% permethrin in DPM/d-limonene, 100% d-limonene of solvent mixture, 5° C.): 1.71 | Isomer Ratio Trans/Cis (65% permethrin in DPM/d-limonene, 100% d-limonene of solvent mixture, 10° C.): 1.39 | Isomer Ratio Trans/Cis (65% permethrin in PM/d-limonene, 0% d-limonene of solvent mixture, 0° C.): 2.85 | Isomer Ratio Trans/Cis (65% permethrin in PM/d-limonene, 0% d-limonene of solvent mixture, 5° C.): 2.66 | Isomer Ratio Trans/Cis (65% permethrin in PM/d-limonene, 10% d-limonene of solvent mixture, 10° C.): 1.87 | Isomer Ratio Trans/Cis (65% permethrin in PM/d-limonene, 20% d-limonene of solvent mixture, 10° C.): 1.54 | Isomer Ratio Trans/Cis (65% permethrin in PM/d-limonene, 33% d-limonene of solvent mixture, 0° C.): 2.60 | Isomer Ratio Trans/Cis (65% permethrin in PM/d-limonene, 33% d-limonene of solvent mixture, 5° C.): 1.8 | Isomer Ratio Trans/Cis (65% permethrin in PM/d-limonene, 33% d-limonene of solvent mixture, 10° C.): 1.70 | Isomer Ratio Trans/Cis (65% permethrin in PM/d-limonene, 50% d-limonene of solvent mixture, 0° C.): 2.13 | Isomer Ratio Trans/Cis (65% permethrin in PM/d-limonene, 50% d-limonene of solvent mixture, 5° C.): 1.65 | Isomer Ratio Trans/Cis (65% permethrin in PM/d-limonene, 50% d-limonene of solvent mixture, 10° C.): 1.53 | Isomer Ratio Trans/Cis (65% permethrin in PM/d-limonene, 67% d-limonene of solvent mixture, 0° C.): 2.25 | Isomer Ratio Trans/Cis (65% permethrin in PM/d-limonene, 67% d-limonene of solvent mixture, 5° C.): 1.48 | Isomer Ratio Trans/Cis (65% permethrin in PM/d-limonene, 67% d-limonene of solvent mixture, 10° C.): 1.37 | Isomer Ratio Trans/Cis (65% permethrin in PM/d-limonene, 100% d-limonene of solvent mixture, 0° C.): 2.46 | Isomer Ratio Trans/Cis (65% permethrin in PM/d-limonene, 100% d-limonene of solvent mixture, 5° C.): 1.71 | Isomer Ratio Trans/Cis (65% permethrin in PM/d-limonene, 100% d-limonene of solvent mixture, 10° C.): 1.39 | Isomer Ratio Trans/Cis (70% permethrin in DPM/d-limonene, 0% d-limonene of solvent mixture, 0° C.): 3.09 | Isomer Ratio Trans/Cis (70% permethrin in DPM/d-limonene, 0% d-limonene of solvent mixture, 5° C.): 2.64 | Isomer Ratio Trans/Cis (70% permethrin in DPM/d-limonene, 0% d-limonene of solvent mixture, 10° C.): 2.32 | Isomer Ratio Trans/Cis (70% permethrin in DPM/d-limonene, 10% d-limonene of solvent mixture, 10° C.): 2.21 | Isomer Ratio Trans/Cis (70% permethrin in DPM/d-limonene, 20% d-limonene of solvent mixture, 10° C.): 2.08 | Isomer Ratio Trans/Cis (70% permethrin in DPM/d-limonene, 33% d-limonene of solvent mixture, 5° C.): 1.77 | Isomer Ratio Trans/Cis (70% permethrin in DPM/d-limonene, 33% d-limonene of solvent mixture, 10° C.): 2.05 | Isomer Ratio Trans/Cis (70% permethrin in DPM/d-limonene, 50% d-limonene of solvent mixture, 0° C.): 2.42 | Isomer Ratio Trans/Cis (70% permethrin in DPM/d-limonene, 50% d-limonene of solvent mixture, 5° C.): 1.72 | Isomer Ratio Trans/Cis (70% permethrin in DPM/d-limonene, 50% d-limonene of solvent mixture, 10° C.): 2.00 | Isomer Ratio Trans/Cis (70% permethrin in DPM/d-limonene, 67% d-limonene of solvent mixture, 0° C.): 2.34 | Isomer Ratio Trans/Cis (70% permethrin in DPM/d-limonene, 67% d-limonene of solvent mixture, 5° C.): 1.65 | Isomer Ratio Trans/Cis (70% permethrin in DPM/d-limonene, 67% d-limonene of solvent mixture, 10° C.): 1.91 | Isomer Ratio Trans/Cis (70% permethrin in DPM/d-limonene, 100% d-limonene of solvent mixture, 0° C.): 2.74 | Isomer Ratio Trans/Cis (70% permethrin in DPM/d-limonene, 100% d-limonene of solvent mixture, 5° C.): 2.29 | Isomer Ratio Trans/Cis (70% permethrin in DPM/d-limonene, 100% d-limonene of solvent mixture, 10° C.): 1.46 | Isomer Ratio Trans/Cis (70% permethrin in PM/d-limonene, 0% d-limonene of solvent mixture, 0° C.): 2.49 | Isomer Ratio Trans/Cis (70% permethrin in PM/d-limonene, 0% d-limonene of solvent mixture, 5° C.): 2.64 | Isomer Ratio Trans/Cis (70% permethrin in PM/d-limonene, 10% d-limonene of solvent mixture, 10° C.): 2.17 | Isomer Ratio Trans/Cis (70% permethrin in PM/d-limonene, 20% d-limonene of solvent mixture, 10° C.): 1.94 | Isomer Ratio Trans/Cis (70% permethrin in PM/d-limonene, 33% d-limonene of solvent mixture, 0° C.): 2.80 | Isomer Ratio Trans/Cis (70% permethrin in PM/d-limonene, 33% d-limonene of solvent mixture, 5° C.): 1.94 | Isomer Ratio Trans/Cis (70% permethrin in PM/d-limonene, 33% d-limonene of solvent mixture, 10° C.): 1.98 | Isomer Ratio Trans/Cis (70% permethrin in PM/d-limonene, 50% d-limonene of solvent mixture, 0° C.): 2.53 | Isomer Ratio Trans/Cis (70% permethrin in PM/d-limonene, 50% d-limonene of solvent mixture, 5° C.): 1.70 | Isomer Ratio Trans/Cis (70% permethrin in PM/d-limonene, 50% d-limonene of solvent mixture, 10° C.): 1.87 | Isomer Ratio Trans/Cis (70% permethrin in PM/d-limonene, 67% d-limonene of solvent mixture, 0° C.): 2.50 | Isomer Ratio Trans/Cis (70% permethrin in PM/d-limonene, 67% d-limonene of solvent mixture, 5° C.): 1.69 | Isomer Ratio Trans/Cis (70% permethrin in PM/d-limonene, 67% d-limonene of solvent mixture, 10° C.): 1.74 | Isomer Ratio Trans/Cis (70% permethrin in PM/d-limonene, 100% d-limonene of solvent mixture, 0° C.): 2.74 | Isomer Ratio Trans/Cis (70% permethrin in PM/d-limonene, 100% d-limonene of solvent mixture, 5° C.): 2.29 | Isomer Ratio Trans/Cis (70% permethrin in PM/d-limonene, 100% d-limonene of solvent mixture, 10° C.): 1.46 | Crystals [1]: 1/4 | trans/cis isomer ratio [1]: 1.90 | Crystals [2]: 1/2 | trans/cis isomer ratio [2]: 1.82 | Crystals [3]: >90% | trans/cis isomer ratio [3]: 2.24 | Crystals [4]: >90% | trans/cis isomer ratio [4]: 2.26 | Crystals (DM, 5° C., Original % permethrin 75): >90% | Crystals [5]: 1/4 | trans/cis isomer ratio [5]: 1.82 | Crystals [6]: 1/2 | trans/cis isomer ratio [6]: 2.08 | Crystals [7]: 2/3 | trans/cis isomer ratio [7]: 1.97 | Crystals (DM, 10° C., Original % permethrin 65): 2/3 | Crystals (DM, 10° C., Original % permethrin 75): 3/4 | Crystals [8]: None | trans/cis isomer ratio [8]: 1.24 | Crystals [9]: None | trans/cis isomer ratio [9]: 1.23 | Crystals [10]: None | trans/cis isomer ratio [10]: 1.31 | Crystals [11]: None | trans/cis isomer ratio [11]: 1.31 | Crystals [12]: Crystals | trans/cis isomer ratio [12]: 1.39 | Crystals [13]: None | trans/cis isomer ratio [13]: 1.24 | Crystals [14]: None | trans/cis isomer ratio [14]: 1.23 | Crystals [15]: None | trans/cis isomer ratio [15]: 1.22 | Crystals [16]: None | trans/cis isomer ratio [16]: 1.25 | Crystals [17]: None | trans/cis isomer ratio [17]: 1.30 | Crystals [18]: None | trans/cis isomer ratio [18]: 1.77 | Crystals [19]: Few | trans/cis isomer ratio [19]: 1.60 | Crystals [20]: 1/3 | trans/cis isomer ratio [20]: 1.94 | Crystals [21]: 1/2 | trans/cis isomer ratio [21]: 1.98 | Crystals [22]: >90% | trans/cis isomer ratio [22]: 2.21 | Crystals (PM, 10° C., Original % permethrin 50): None | Crystals (PM, 10° C., Original % permethrin 55): Few | Crystals [23]: 1/3 | trans/cis isomer ratio [23]: 1.51 | Crystals [24]: 1/2 | trans/cis isomer ratio [24]: 1.99 | Crystals [25]: 2/3 | trans/cis isomer ratio [25]: 2.05 | Crystals [26]: None | trans/cis isomer ratio [26]: 1.28 | Crystals [27]: None | trans/cis isomer ratio [27]: 1.29 | Crystals [28]: None | trans/cis isomer ratio [28]: 1.25 | Crystals [29]: None | trans/cis isomer ratio [29]: 1.23 | Crystals [30]: None | trans/cis isomer ratio [30]: 1.23 | Crystals [31]: None | trans/cis isomer ratio [31]: 1.28 | Crystals [32]: None | trans/cis isomer ratio [32]: 1.28 | Crystals [33]: None | trans/cis isomer ratio [33]: 1.24 | Crystals [34]: None | trans/cis isomer ratio [34]: 1.22 | Crystals [35]: None | trans/cis isomer ratio [35]: 1.21
